Our source for the IC50 values is patent US20020183362A1, “2-Fluorobenzenesulfonyl compounds for the treatment of inflammation” (Pharmacia Corporation, priority 2000, published 2002).

Chains of the proteins cited; added tags and fusions are not shown. Residues count along the entry.
UniProt P23219, 24-599: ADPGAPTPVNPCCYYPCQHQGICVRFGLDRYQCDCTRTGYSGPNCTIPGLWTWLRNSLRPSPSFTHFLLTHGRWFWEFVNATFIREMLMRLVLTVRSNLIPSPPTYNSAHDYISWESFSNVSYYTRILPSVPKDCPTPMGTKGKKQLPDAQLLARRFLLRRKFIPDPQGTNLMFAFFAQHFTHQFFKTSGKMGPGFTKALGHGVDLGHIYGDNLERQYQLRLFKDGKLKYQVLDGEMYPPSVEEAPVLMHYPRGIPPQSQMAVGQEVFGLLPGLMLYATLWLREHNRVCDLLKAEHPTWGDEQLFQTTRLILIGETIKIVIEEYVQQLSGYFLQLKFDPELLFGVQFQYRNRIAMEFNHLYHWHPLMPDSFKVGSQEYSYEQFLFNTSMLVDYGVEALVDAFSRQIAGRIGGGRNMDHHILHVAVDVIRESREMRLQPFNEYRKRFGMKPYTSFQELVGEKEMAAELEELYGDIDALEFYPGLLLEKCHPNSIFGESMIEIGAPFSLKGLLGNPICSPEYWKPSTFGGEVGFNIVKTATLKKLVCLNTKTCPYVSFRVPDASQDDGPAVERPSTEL

The structures appear in SMILES notation.

As usually defined, the IC50 is the concentration at which inhibition is half-maximal.

Test [1] concerns the target T1, Human COX-1 (Homo sapiens, UniProt P23219).
T1 construct: A 2.0 kb fragment containing the coding region of either human or murine COX-1 or human or murine COX-2; made in house; host or cells: SF9 insect cells (baculovirus, transfer vector pVL1393)
Kind of test: Assay for COX-1 and COX-2 activity (PGE2 ELISA, recombinant enzyme), COX-1. It counts as biochemical. The settings on record: Table I; pre-incubated 10-20 minutes, arachidonic acid 10 μM, stopped after ten minutes, pH 8.0. On the procedure:
(§1) Recombinant baculoviruses were isolated by transfecting 4 μg of baculovirus transfer vector DNA into SF9 insect cells (2×10^8) along with 200 ng of linearized baculovirus plasmid DNA by the calcium phosphate method. See M. D. Summers and G. E. Smith, A Manual of Methods for Baculovirus Vectors and Insect Cell Culture Procedures, Texas Agric. Exp. Station Bull. […] Recombinant viruses were purified by three rounds of plaque purification and high titer (10^7-10^8 pfu/mL) stocks of virus were prepared. For large scale production, SF9 insect cells were infected in 10 liter fermentors (0.5×10^6/mL) with the recombinant baculovirus stock such that the multiplicity of infection was 0.1. After 72 hours the cells were centrifuged and the cell pellet homogenized in Tris/Sucrose (50 mM: 25%, pH 8.0) containing 1% 3-[(3-cholamidopropyl)dimethylammonio]-1-propanesulfonate (CHAPS). The homogenate was centrifuged at 10,000×G for 30 minutes, and the resultant supernatant was stored at −80° C. before being assayed for COX activity.
(§2) COX activity was assayed as PGE2 formed/μg protein/time using an ELISA to detect the prostaglandin released. […] The PGE2 formed was measured by standard ELISA technology (Cayman Chemical).
Background: An ELISA detects its analyte on a solid surface through an enzyme-linked reagent.

In test [2] the target is T1, Human COX-1. Put plainly: Fast assay for COX-1 and COX-2 activity (PGE2 ELISA), COX-1. The settings on record: Table II, pre-incubated 10 minutes at 25° C., arachidonic acid 10 μM, stopped after two minutes, pH 7.5. The class given is biochemical. On the procedure: as §1, §2

For `COc1ccc(-c2cc(C(F)(F)F)nn2-c2ccc(S(N)(=O)=O)c(F)c2)cc1` [Example 7, 2-Fluoro-4-[5-(4-methoxyphenyl)-3-(trifluoromethyl)-1H-pyrazol-1-yl]benzenesulfonamide], the results for the IC50 in test [1] and in test [2] were 7.72 µM and 5.25 µM, respectively.
